# Patent US20260055079A1, “PHTHALAZINONE COMPOUNDS AS PARP7 INHIBITORS” (AZKARRA THERAPEUTICS, INC., priority 2022, published 2026)
# The chains behind the UniProt entries cited, without tags or fusion partners. Where a name states a change or a piece, a line headed by the entry shows the natural chain unless it says otherwise.
# UniProt Q7Z3E1: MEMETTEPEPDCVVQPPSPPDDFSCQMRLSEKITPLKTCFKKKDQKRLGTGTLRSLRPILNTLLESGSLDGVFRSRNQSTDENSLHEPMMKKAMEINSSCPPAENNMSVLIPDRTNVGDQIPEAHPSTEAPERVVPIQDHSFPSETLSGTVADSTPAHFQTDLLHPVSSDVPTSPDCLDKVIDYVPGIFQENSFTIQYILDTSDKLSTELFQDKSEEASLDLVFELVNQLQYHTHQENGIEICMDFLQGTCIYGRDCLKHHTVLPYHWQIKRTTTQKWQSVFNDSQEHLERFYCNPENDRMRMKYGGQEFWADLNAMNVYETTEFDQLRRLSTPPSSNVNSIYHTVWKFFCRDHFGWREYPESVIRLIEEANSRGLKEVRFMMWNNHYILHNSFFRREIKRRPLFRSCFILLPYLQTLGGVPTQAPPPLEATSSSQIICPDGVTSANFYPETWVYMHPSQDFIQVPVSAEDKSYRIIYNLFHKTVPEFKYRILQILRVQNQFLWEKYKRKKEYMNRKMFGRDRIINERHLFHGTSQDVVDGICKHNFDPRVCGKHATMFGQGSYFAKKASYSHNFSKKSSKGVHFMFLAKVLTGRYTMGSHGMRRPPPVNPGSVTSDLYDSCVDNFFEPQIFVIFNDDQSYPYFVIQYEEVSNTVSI
# UniProt Q9UGN5: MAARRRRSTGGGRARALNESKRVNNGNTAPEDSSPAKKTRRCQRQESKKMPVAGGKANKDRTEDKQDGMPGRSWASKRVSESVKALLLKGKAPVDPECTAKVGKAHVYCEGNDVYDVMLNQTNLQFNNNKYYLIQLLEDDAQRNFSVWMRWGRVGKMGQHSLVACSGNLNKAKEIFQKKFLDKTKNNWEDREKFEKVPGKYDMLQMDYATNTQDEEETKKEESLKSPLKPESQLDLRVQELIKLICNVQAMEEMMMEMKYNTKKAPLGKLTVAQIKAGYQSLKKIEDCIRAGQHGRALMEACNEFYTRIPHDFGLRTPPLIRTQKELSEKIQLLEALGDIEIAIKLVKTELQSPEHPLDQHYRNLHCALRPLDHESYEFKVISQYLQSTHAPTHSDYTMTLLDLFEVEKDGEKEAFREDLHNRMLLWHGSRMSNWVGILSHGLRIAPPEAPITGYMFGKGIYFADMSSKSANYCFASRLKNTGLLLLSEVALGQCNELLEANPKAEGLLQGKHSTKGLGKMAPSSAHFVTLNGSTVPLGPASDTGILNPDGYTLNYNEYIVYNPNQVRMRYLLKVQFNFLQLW
# Assays:
# [1] = target: His-GST-PARP7 (Homo sapiens (Human), UniProt Q7Z3E1); test: PARP7 biochemical assay
# [2] = target: PARP2 (Homo sapiens (Human), UniProt Q9UGN5); test: PARP2 biochemical assay
compound,measurement,setting,value
"N#Cc1ccc(N2CCN(C(=O)c3cccc(Cc4n[nH]c(=O)c5ccc(Oc6ccccc6)cc45)c3)CC2)nc1 [Example 2, 6-(4-(3-((4-Oxo-7-phenoxy-3,4-dihydrophthalazin-1-yl)methyl)benzoyl)piperazin-1-yl)nicotinonitrile]",IC50,[1],< 50 nM
"N#Cc1ccc(N2CCN(C(=O)c3cccc(Cc4n[nH]c(=O)c5ccc(Cl)cc45)c3)CC2)nc1 [Example 5, 6-(4-(3-((7-Chloro-4-oxo-3,4-dihydrophthalazin-1-yl)methyl)benzoyl)piperazin-1-yl)nicotinonitrile]",IC50,[1],< 50 nM
"N#Cc1ccc(N2CCN(C(=O)c3cccc(Cc4n[nH]c(=O)c5ccc(F)cc45)c3)CC2)nc1 [Example 6, 6-(4-(3-((7-Fluoro-4-oxo-3,4-dihydrophthalazin-1-yl)methyl)benzoyl)piperazin-1-yl)nicotinonitrile]",IC50,[1],< 50 nM
"N#Cc1ccc(N2CCN(C(=O)c3cc(Cc4n[nH]c(=O)c5ccc(OCC6CC6)cc45)ccc3F)CC2)nc1 [Example 7, 6-(4-(5-((7-(Cyclopropylmethoxy)-4-oxo-3,4-dihydrophthalazin-1-yl)methyl)-2-fluorobenzoyl)piperazin-1-yl)nicotinonitrile]",IC50,[2],100 to 500 nM
same,IC50,[1],< 50 nM
"CN(C)c1ccc2c(=O)[nH]nc(Cc3ccc(F)c(C(=O)N4CCN(c5ccc(C#N)cn5)CC4)c3)c2c1 [Example 28, 6-(4-(5-((7-(Dimethylamino)-4-oxo-3,4-dihydrophthalazin-1-yl)methyl)-2-fluorobenzoyl)piperazin-1-yl)nicotinonitrile]",IC50,[2]; read-out: PARP2 IC50,100 to 500 nM
same,IC50,[1],< 50 nM

# Where two headings read alike, the source gives them in different places.
